Consider one compound from PMC11571015, “Hybrids of Membrane-Translocating Antimicrobial Peptides Show Enhanced Activity through Membrane Permeabilization” (ACS Medicinal Chemistry Letters, 2024).

One test relates to E. coli. In kind it is cell-based, E. coli (Top10 Strain). The settings on record: median MIC; microbroth dilution, 1:2 serial dilution 18.2 to 1.8x10-2 μM, 4 × 10^6 CFU/mL, 1 h 37°C in wash buffer pH 7.4, then TSB overnight (18-24 h), OD600; triplicate per plate; mixture: each peptide at the reported concentration. How it is done:
(§1) Supplemental Information for Trevellin et al.
(§2) Peptide design and preparation […]
(§3) synthesized by GenScript (Piscataway, NJ) at >95% purity determined by HPLC and dissolved in DI water. Concentrations were measured by triplicate tryptophan absorbance readings at 280 nm (ε=5700 M–1cm–1, l=1 cm) using a ThermoScientific NanoDrop 2000 (Waltham, MA). Buforin II (BF2) included an F10W mutation used in many previous studies1-5 to allow for concentration measurements.
(§4) Bacteria included E. coli (Top10 Strain, Invitrogen/ThermoFisher) containing a plasmid for ampicillin resistance (Novagen) and/or B. subtilis (ATCC #6051). Bacterial growth was performed in TSB (trypticase soy broth) prepared at 3% w/v (30 g of media in 1 L) from BD Difco unless otherwise noted. Overnight cultures were picked from petri dishes or frozen stock and grown for 14-16 hours at 37 °C in TSB with shaking. E. coli overnight cultures were incubated with 25 μg/mL ampicillin. The overnight cultures were then diluted 1:100 in 25 mL TSB and incubated at 37 °C with shaking for 2.5 h. […]
(§5) Microbroth dilution assays were used to determine the minimum inhibitory concentration (MIC) of each peptide for E. coli and B. subtilis (ATCC #6051). […] After incubation, OD600nm were measured using the SpectraMax M3 microplate reader (Molecular Devices). […]

The subject of another test is B. subtilis. In kind it is cell-based, B. subtilis (ATCC #6051). The settings on record: 1 h, pH 7.4. The procedure:
as §1, §2, §3, §4, §5

In the case of `CC[C@H](C)[C@H](NC(=O)[C@H](CCCNC(=N)N)NC(=O)[C@@H](NC(=O)[C@H](CCCCN)NC(=O)[C@H](CCCCN)NC(=O)[C@H](CC(N)=O)NC(=O)[C@H](CC(=O)O)NC(=O)[C@H](CCCNC(=N)N)NC(=O)[C@H](C)N)[C@@H](C)O)C(=O)N[C@@H](Cc1c[nH]c2ccccc12)C(=O)N1CCC[C@H]1C(=O)N[C@@H](CCCNC(=N)N)C(=O)N[C@@H](Cc1c[nH]cn1)C(=O)N[C@@H](CC(C)C)C(=O)N[C@@H](CCC(N)=O)C(=O)N[C@@H](CC(C)C)C(=O)N[C@@H](C)C(=O)N[C@H](C(=O)N[C@@H](CCCNC(=N)N)C(=O)N[C@@H](CC(N)=O)C(=O)O)C(C)C` [DesHDAP1, reference compound], the “MIC against E. coli” value in the test with E. coli was greater than 18.2 µM. Also, the “MIC against B. subtilis” value with B. subtilis was greater than 18.2 µM.
